Our source for the solubility values is the OPERA property sets (Mansouri et al. 2018).

Structures are written as SMILES. ≈ marks a conversion by molar mass, not a printed value.

The conditions of this data set: experimental values compiled from the literature.

The term solubility denotes the dissolved amount per volume that the medium holds. Read a high solubility as much dissolved substance. As to `O=[N+]([O-])OCCO[N+](=O)[O-]`, the solubility came to 44.7 mM (≈ 6800 µg/mL).
With `O=[N+]([O-])c1cc(O)cc([N+](=O)[O-])c1`, the solubility worked out at 21.7 mM (≈ 4000 µg/mL).
